Experimental findings from patent US20200354426A1 (MEDIMMUNE LIMITED, priority 2016, published 2020) are described below.

This experiment concerns the target T1, Human GIPr (Homo sapiens, UniProt P48546).
T1 construct: expressed in transfected cells
T1 sequence (P48546 22-466): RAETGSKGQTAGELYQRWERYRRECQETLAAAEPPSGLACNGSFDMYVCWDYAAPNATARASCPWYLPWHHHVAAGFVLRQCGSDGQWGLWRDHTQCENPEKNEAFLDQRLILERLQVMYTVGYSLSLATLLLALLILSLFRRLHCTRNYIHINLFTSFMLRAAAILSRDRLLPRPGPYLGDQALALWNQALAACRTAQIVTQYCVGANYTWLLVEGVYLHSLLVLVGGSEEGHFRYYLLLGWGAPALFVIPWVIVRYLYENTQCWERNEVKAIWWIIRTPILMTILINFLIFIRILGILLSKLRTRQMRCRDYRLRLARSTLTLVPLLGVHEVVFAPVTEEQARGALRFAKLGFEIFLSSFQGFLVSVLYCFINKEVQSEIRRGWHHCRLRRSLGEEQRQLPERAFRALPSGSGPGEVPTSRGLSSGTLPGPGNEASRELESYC
The experiment can be described thus: cAMP activity assay in assay medium (assay 1). Type of experiment: cell-based. The following applies: Table 4, read-out: hGIPR EC50. The text has this: Biological Activity of Peptides in Cell-Based cAMP Activity Assay (Assay 1):
All sample dilutions were made in duplicate.

GLP1 [reference compound]: the EC50 was 153 nM.

For orientation: EC50 means the concentration needed to bring the measured effect to its halfway point.
